Reference: BindingDB's records for doi:10.1021/jm0500875 (Pfizer, 2005)

Legend:
Interstitial collagenase = molecular target: T1, Interstitial collagenase (Homo sapiens, UniProt P03956); assay: Enzyme Inhibition Assay; settings: pH 7.5; 25 °C
T1 sequence (P03956 whole entry): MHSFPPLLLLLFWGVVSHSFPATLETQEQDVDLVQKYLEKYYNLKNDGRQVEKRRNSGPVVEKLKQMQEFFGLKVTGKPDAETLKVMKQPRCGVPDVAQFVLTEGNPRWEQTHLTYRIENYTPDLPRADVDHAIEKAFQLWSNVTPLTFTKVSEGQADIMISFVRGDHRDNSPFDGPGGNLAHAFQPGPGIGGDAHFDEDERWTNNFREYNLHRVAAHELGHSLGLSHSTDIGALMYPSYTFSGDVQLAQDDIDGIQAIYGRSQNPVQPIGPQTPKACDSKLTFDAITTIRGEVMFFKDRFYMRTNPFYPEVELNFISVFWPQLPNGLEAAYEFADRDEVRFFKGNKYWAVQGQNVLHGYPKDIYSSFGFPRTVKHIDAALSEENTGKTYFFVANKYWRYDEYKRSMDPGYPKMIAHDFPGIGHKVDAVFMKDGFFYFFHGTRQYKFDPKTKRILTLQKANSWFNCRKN

Collagenase 3 = Collagenase 3 (Homo sapiens, UniProt P45452); assay: Enzyme Inhibition Assay

Ki (Interstitial collagenase): 435 nM
Ki (Collagenase 3): 0.15 nM
Structure (SMILES): O=C(NO)C1(S(=O)(=O)c2ccc(Oc3ccc(Cl)cc3)cc2)CCOCC1 [4-{[4-(4-chlorophenoxy)benzene]sulfonyl}-N-hydroxyoxane-4-carboxamide]
